# Measured affinities in a library of Ab-14 light chain variants

Values reported by Engelhart et al. 2022, doi:10.1038/s41597-022-01779-4 (FLAb copy).

The target is the same throughout: PDVDLGDISGINAS, from the HR2 region of SARS-CoV-2 spike.

Parent: Ab-14, a human scFv built as VH, three GGGGS repeats, VL. Only the CDRs of the light chain vary.
VH: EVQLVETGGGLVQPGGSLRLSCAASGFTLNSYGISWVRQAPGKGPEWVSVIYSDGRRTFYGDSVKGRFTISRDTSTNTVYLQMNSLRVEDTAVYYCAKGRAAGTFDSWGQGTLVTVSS
VL: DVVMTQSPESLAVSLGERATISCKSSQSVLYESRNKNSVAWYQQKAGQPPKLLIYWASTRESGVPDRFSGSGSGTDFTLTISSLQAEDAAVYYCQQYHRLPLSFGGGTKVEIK

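In library AAYL50, one, two or three CDR residues were substituted; doubles and triples were drawn at random. The scFvs were displayed on barcoded MATa yeast, the peptide on MATalpha yeast. Binding brings cells together so that they mate, and sequencing counts the barcode pairs among the diploids. A regression on co-assayed BCL2-family reference pairs converts the normalised counts of each replicate to an apparent Kd. The assay was run in three technical replicates.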

Each variant's VL is given in full. Values are log10 of the apparent Kd in nM; lower means stronger binding. "nd" marks a missing value. The strain was present, yet no cells mated with the target were sequenced in that replicate, which points to weak or no binding.

| # | VL | log10 Kd (nM) by replicate | control signals |
|---|---|---|---|
| 1 | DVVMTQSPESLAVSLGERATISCKSSQSCLYESRNKNSEAWYQQKAGQPPKLLIYWASTRESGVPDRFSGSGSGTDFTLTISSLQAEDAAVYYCQQYHRLPLSFGGGTKVEIK | nd nd nd | 2 of 9 (4.48) |
| 2 | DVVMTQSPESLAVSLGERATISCKSSHSVLYESRNKNSVAWYQQKAGQPPKLLIYWASTREWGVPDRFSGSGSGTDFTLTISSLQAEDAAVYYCQQYIRLPLSFGGGTKVEIK | 1.65 1.70 2.18 | 1 of 9 (3.67) |
| 3 | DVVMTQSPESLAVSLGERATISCKSYQSVLYESRNKNSVAWYQQKAGQPPKLLIYWASTRYSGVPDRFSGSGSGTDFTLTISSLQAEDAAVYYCQQYHRLPLIFGGGTKVEIK | 1.14 1.43 1.73 | 2 of 9 (4.02) |
| 4 | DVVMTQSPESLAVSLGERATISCKSSQSVLYESRNKNSPHWYQQKAGQPPKLLIYWNSTRESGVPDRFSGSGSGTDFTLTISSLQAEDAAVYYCQQYHRLPLSFGGGTKVEIK | 6.27 nd 4.95 | 1 of 9 (4.57) |
| 5 | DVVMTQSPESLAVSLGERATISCKSSQSWLYESRNKNSVAWYQQKAGQPPKLLIYWASTRESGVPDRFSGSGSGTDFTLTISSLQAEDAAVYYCPQYHRPPLSFGGGTKVEIK | nd nd nd | 0 of 9 |
| 6 | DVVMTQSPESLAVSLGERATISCKSSQSVLYVSRNKNSVRWYQQKAGQPPKLLIYWASTRLSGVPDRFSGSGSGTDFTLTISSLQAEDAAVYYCQQYHRLPLSFGGGTKVEIK | nd nd nd | 3 of 9 (5.04) |
| 7 | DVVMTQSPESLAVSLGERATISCKSSQSVLYESRMKNSVGWYQQKAGQPPKLLIYWASTRESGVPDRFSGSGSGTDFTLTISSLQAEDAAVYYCQQYIRLPLSFGGGTKVEIK | 5.67 4.38 nd | 0 of 9 |
| 8 | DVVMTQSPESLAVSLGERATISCKNSQSVLYESRNKNSVAWYQQKAGQPPKLLIYWASTRGSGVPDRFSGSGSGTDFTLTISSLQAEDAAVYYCFQYHRLPLSFGGGTKVEIK | nd 4.12 nd | 0 of 9 |
| 9 | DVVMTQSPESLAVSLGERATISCKSSQSVLYESRNKNSVMWYQQKAGQPPKLLIYWASTRTSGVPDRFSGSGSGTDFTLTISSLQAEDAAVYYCQQYHRLYLSFGGGTKVEIK | nd nd nd | 0 of 9 |
| 10 | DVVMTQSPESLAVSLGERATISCYSSQSVLYESRNKNSVAWYQQKAGQPPKLLIYWASTRESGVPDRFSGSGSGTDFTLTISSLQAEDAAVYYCQQYHRLDLSFGGGTKVEIK | nd nd 4.42 | 4 of 9 (4.27) |
| 11 | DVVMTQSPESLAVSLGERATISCKSSTSVLYESRNKNSVAWYQQKAGQPPKLLIYWASTRESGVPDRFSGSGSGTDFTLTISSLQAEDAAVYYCQQYLRLVLSFGGGTKVEIK | 4.27 3.18 2.75 | 4 of 9 (4.06) |
| 12 | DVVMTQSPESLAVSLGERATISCKPVQSVLYESRNKNSVAWYQQKAGQPPKLLIYWASTRESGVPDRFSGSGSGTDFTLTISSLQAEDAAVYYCQQYHRLPLSFGGGTKVEIK | nd 3.69 nd | 0 of 9 |
| 13 | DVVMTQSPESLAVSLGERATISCKSSQSVAYESRNKNSVAWYQQKAGQPPKLLIYWASTRESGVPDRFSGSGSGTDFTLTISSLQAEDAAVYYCQQYHVLPLSFGGGTKVEIK | nd nd nd | 0 of 9 |
| 14 | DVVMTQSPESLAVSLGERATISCISSQSVLYESINKNSVAWYQQKAGQPPKLLIYWAGTRESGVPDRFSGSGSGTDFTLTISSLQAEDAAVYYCQQYHRLPLSFGGGTKVEIK | 1.85 1.54 1.41 | 5 of 9 (4.56) |
| 15 | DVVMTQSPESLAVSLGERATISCKSSQSVLYESRNKNSVAWYQQKAGQPPKLLIYWASTYESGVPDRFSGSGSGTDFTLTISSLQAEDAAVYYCQQYHRLTLSFGGGTKVEIK | nd nd nd | 1 of 9 (4.41) |
| 16 | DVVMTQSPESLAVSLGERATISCKSSQSVLTEQRNKNSVAWYQQKAGQPPKLLIYWAATRESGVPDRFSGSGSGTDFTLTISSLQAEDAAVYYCQQYHRLPLSFGGGTKVEIK | nd nd 4.61 | 0 of 9 |
| 17 | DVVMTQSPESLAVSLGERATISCKSKQSVLYESRNKNSVAWYQQKAGQPPKLLIYWASTRESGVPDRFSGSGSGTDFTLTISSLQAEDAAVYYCAQYHRLRLSFGGGTKVEIK | nd nd nd | 0 of 9 |
| 18 | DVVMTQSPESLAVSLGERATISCKSSQSVLYESRNKTSVDWYQQKAGQPPKLLIYWASTRESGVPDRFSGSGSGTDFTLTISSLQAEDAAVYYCQQYHRLPLMFGGGTKVEIK | 6.35 4.39 5.74 | 9 of 9 (5.31) |
| 19 | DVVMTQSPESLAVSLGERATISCMSSQSVLYESRNTNIVAWYQQKAGQPPKLLIYWASTRESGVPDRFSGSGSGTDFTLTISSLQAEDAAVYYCQQYHRLPLSFGGGTKVEIK | nd nd nd | 0 of 9 |
| 20 | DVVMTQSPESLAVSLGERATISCKYSQSVLYASRNKNSVAWYQQKAGQPPKLLIYWASTRESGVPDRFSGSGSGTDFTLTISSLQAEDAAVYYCQQYHVLPLSFGGGTKVEIK | 0.49 0.69 0.62 | 4 of 9 (4.84) |
| 21 | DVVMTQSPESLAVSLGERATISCYSSTMVLYESRNKNSVAWYQQKAGQPPKLLIYWASTRESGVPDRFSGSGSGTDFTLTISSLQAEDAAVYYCQQYHRLPLSFGGGTKVEIK | 2.27 2.61 2.59 | 2 of 9 (4.98) |
| 22 | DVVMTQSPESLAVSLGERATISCKSSQPVLYESRNKNSVAWYQQKAGQPPKLLIYWASWRESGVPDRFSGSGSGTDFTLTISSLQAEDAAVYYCQQYHNLPLSFGGGTKVEIK | 1.92 2.08 2.22 | 3 of 9 (4.08) |
| 23 | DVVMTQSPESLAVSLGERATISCKESQSVLYESRNKNSVAWYQQKAGQPPKLLIYWASTRRSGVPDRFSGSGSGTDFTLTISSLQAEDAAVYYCNQYHRLPLSFGGGTKVEIK | nd nd nd | 0 of 9 |
| 24 | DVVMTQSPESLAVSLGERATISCKSSRSVLYELRNKNSVAWYQQKAGQPPKLLIYWASMRESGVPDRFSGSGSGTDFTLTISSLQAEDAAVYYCQQYHRLPLSFGGGTKVEIK | 3.89 2.98 3.90 | 1 of 9 (3.98) |

A selection of 2 entries from above:

| VL | log10 Kd (nM) by replicate | control signals |
|---|---|---|
| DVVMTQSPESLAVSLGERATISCKSSQSVAYESRNKNSVAWYQQKAGQPPKLLIYWASTRESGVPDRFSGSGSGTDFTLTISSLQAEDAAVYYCQQYHVLPLSFGGGTKVEIK | nd nd nd | 0 of 9 |
| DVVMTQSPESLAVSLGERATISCKSSQSCLYESRNKNSEAWYQQKAGQPPKLLIYWASTRESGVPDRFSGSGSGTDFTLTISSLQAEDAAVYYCQQYHRLPLSFGGGTKVEIK | nd nd nd | 2 of 9 (4.48) |

For reference, the parent read 0.65 as the reference entry and 1.68 as a member of this library. Background: pairings of library AAYL50 with three empty control strains gave a value in 18% of cases (median 4.19, 5th percentile 2.99). Values in that range, when seen in few replicates, are hard to tell from nonspecific mating. For each scFv, signals with the empty controls are counted beside the result, with their mean in brackets.